{
  "sequences": {"note": "Chains of the proteins cited; added tags and fusions are not shown. Lines headed by an entry give the natural chain unless they say otherwise; changes in a name come on top.", "UniProt P41145": "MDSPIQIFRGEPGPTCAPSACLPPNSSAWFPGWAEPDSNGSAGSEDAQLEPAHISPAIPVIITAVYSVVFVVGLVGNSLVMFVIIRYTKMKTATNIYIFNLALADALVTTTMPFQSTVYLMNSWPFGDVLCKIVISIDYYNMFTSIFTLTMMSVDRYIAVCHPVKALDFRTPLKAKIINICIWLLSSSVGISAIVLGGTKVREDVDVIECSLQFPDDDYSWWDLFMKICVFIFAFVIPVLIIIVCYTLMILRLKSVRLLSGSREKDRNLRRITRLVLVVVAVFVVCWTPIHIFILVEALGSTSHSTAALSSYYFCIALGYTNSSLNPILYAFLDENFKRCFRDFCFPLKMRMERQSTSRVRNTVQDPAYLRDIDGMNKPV"},
  "source": "patent US20160122307A1",
  "about": "“PERHYDROQUINOXALINE DERIVATIVES” (DR. AUGUST WOLFF GMBH & CO. KG ARZNEIMITTEL, priority 2013, published 2016)",
  "key": {"[1]": {"target": "Human opiate κ receptors (Homo sapiens, UniProt P41145)", "assay": "κ opioid receptor functional assay, [35S]GTPγS binding (assay C)", "assay_type": "biochemical", "conditions": "for EC50: read-out: EC50 (nM) [35S]GTPγS binding; for % activation functional assay at 1 μM: [35S]GTPγS binding relative to the 10 μM U-69593 response; for pEC50: read-out: GTPγS EC50, κ opioid functional activity, [35S]GTPγS binding, human recombinant κ receptors in HEK-293 membranes, EC50 grouped in three classes"}, "[2]": {"tested_on": "chronic oxazolone-induced ear inflammation", "assay": "In vivo model of chronic oxazolone-induced ear inflammation (assay E)", "parameters": "species or system mice", "conditions": "RT-qPCR, ears"}, "[3]": {"conditions": "Table 4, reference compounds from WO2009/080745"}},
  "note": "pEC50: −log10 of the molar value. Read-outs that look alike come from different tables or passages of the source.",
  "data": [
    {"smiles": "CC(=O)N1CCN(C(=O)Cc2ccc(Cl)c(Cl)c2)C2C(N3CCCC3)CCCC21", "note": "(centres unmarked)", "values": [
      {"measurement": "activation (% of control) at 1 μM", "setting": "[1]; [3]", "result": "78 % of control"},
      {"measurement": "EC50", "setting": "[1]; [3]", "result": 330, "unit": "nM"}
    ]},
    {"smiles": "CN1CCN(C(=O)Cc2ccc(Cl)c(Cl)c2)C2C1CCCC2N1CCC(O)C1", "note": "(centres unmarked)", "values": [
      {"measurement": "activation (% of control) at 1 μM", "setting": "[1]; [3]", "result": "99 % of control"},
      {"measurement": "EC50", "setting": "[1]; [3]", "result": 79, "unit": "nM"}
    ]},
    {"smiles": "CN1CCN(C(=O)Cc2ccc(Cl)c(Cl)c2)C2C1CCCC2N1CCCC1", "note": "(centres unmarked)", "values": [
      {"measurement": "activation (% of control) at 1 μM", "setting": "[1]; [3]", "result": "107 % of control"},
      {"measurement": "EC50", "setting": "[1]; [3]", "result": 20, "unit": "nM"}
    ]},
    {"smiles": "COC(=O)N1CCN(C(=O)Cc2ccc(Cl)c(Cl)c2)[C@@H]2[C@@H](N3CCCC3)CCC[C@@H]21", "values": [
      {"measurement": "mRNA expression of IL-6, TNF-α, CD117, FcεRI, myeloperoxidase, CD26E, ICAM-1", "setting": "[2]", "result": "down-regulated"}
    ]},
    {"smiles": "O=C(Cc1ccc(Cl)c(Cl)c1)N1CCNC2CCCC(N3CCC(O)C3)C21", "note": "(centres unmarked)", "values": [
      {"measurement": "activation (% of control) at 1 μM", "setting": "[1]; [3]", "result": "108 % of control"},
      {"measurement": "EC50", "setting": "[1]; [3]", "result": 35, "unit": "nM"}
    ]},
    {"smiles": "O=C(Cc1ccc(Cl)c(Cl)c1)N1CCNC2CCCC(N3CCCC3)C21", "note": "(centres unmarked)", "values": [
      {"measurement": "activation (% of control) at 1 μM", "setting": "[1]; [3]", "result": "114 % of control"},
      {"measurement": "EC50", "setting": "[1]; [3]", "result": 33, "unit": "nM"}
    ]},
    {"smiles": "CC(=O)N1CCN(C(=O)Cc2ccc(Cl)c(Cl)c2)C2C(N3CCCC3)CCCC21", "note": "(racemic)", "values": [
      {"measurement": "activation (% of control) at 1 μM", "setting": "[1]; Table 5, selected examples", "result": "101 % of control"},
      {"measurement": "% activation functional assay at 1 μM", "setting": "[1]", "result": 101, "unit": "%"},
      {"measurement": "EC50", "setting": "[1]; Table 5, selected examples", "result": 3.96, "unit": "nM"},
      {"measurement": "pEC50", "setting": "[1]", "result": "> 8.00"}
    ]},
    {"smiles": "CN1CCN(C(=O)Cc2ccc(Cl)c(Cl)c2)C2C1CCCC2N1CCCC1", "note": "(racemic)", "values": [
      {"measurement": "activation (% of control) at 1 μM", "setting": "[1]; Table 5, selected examples", "result": "107 % of control"},
      {"measurement": "% activation functional assay at 1 μM", "setting": "[1]", "result": 107, "unit": "%"},
      {"measurement": "EC50", "setting": "[1]; Table 5, selected examples", "result": 2.46, "unit": "nM"},
      {"measurement": "pEC50", "setting": "[1]", "result": "> 8.00"}
    ]},
    {"smiles": "O=C(Cc1ccc(Cl)c(Cl)c1)N1CCN[C@H]2CCC[C@H](N3CCCC3)[C@H]21", "note": "(racemic)", "values": [
      {"measurement": "activation (% of control) at 1 μM", "setting": "[1]; Table 5, selected examples", "result": "102 % of control"},
      {"measurement": "% activation functional assay at 1 μM", "setting": "[1]", "result": 102, "unit": "%"},
      {"measurement": "EC50", "setting": "[1]; Table 5, selected examples", "result": 1.64, "unit": "nM"},
      {"measurement": "pEC50", "setting": "[1]", "result": "> 8.00"}
    ]},
    {"smiles": "O=CN1CCN(C(=O)Cc2ccc(Cl)c(Cl)c2)C2C1CCCC2N1CCCC1", "note": "(racemic)", "values": [
      {"measurement": "% activation functional assay at 1 μM", "setting": "[1]", "result": 108, "unit": "%"},
      {"measurement": "pEC50", "setting": "[1]", "result": "7.00 to 8.00"}
    ]},
    {"smiles": "O=C(C=Cc1ccoc1)N1CCN(C(=O)Cc2ccc(Cl)c(Cl)c2)C2C(N3CCCC3)CCCC21", "note": "(racemic) [Example 79]", "values": [
      {"measurement": "pEC50", "setting": "[1]", "result": "7.00 to 8.00"}
    ]}
  ]
}
